Among the data in patent US6723733B2, “Sulfonamide and carbamide derivatives of 6(5H)phenanthridinones and their uses” (Guilford Pharmaceuticals, Inc., priority 2000, dated 2004) are IC50 values, retold here.

Chains of the proteins cited; added tags and fusions are not shown.
UniProt P09874, whole entry: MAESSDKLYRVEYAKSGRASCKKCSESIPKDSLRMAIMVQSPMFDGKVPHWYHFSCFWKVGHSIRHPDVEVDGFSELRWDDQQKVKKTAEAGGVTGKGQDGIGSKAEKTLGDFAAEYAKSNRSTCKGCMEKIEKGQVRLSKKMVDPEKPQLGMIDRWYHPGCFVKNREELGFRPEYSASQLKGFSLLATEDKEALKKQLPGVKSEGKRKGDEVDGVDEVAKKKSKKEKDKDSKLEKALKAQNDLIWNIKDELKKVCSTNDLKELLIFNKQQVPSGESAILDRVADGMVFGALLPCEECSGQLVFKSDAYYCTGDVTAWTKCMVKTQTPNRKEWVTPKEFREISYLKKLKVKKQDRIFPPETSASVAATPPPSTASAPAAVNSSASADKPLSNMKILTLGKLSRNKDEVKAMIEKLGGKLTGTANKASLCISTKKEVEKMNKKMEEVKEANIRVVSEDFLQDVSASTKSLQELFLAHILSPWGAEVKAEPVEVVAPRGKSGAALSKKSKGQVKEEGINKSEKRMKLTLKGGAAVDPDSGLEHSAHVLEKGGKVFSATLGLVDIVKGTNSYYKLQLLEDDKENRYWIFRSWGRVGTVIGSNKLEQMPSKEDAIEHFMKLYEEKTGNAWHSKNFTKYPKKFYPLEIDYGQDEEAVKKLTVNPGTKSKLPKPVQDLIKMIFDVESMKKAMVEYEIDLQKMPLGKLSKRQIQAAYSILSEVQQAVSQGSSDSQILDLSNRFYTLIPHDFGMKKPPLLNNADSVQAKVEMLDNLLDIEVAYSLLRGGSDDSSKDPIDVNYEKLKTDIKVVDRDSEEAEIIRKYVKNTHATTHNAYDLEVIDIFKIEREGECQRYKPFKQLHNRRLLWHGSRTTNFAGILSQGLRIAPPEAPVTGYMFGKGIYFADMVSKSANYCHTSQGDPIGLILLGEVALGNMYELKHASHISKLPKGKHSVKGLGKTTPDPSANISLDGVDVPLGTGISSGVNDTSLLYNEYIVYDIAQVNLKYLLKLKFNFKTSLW

For orientation: IC50 means the concentration that inhibits the measured activity by half.

This assay addresses T1, purified recombinant human PARP (Homo sapiens, UniProt P09874).
T1 construct: purchased Trevigan (Gaithersburg, Md.)
Briefly: PARP enzyme assay (IC50), [3H]NAD incorporation. It counts as biochemical. Particulars: approximate IC50 values; 25° C., 15 minutes.

For `Cc1cccc2c(=O)[nH]c3cc(C(F)(F)F)c(N)cc3c12` [Compound 46], the IC50 is 0.044 µM.

Turning to `O=C(O)c1ccc2c(c1)[nH]c(=O)c1cc(F)ccc12` [Compound 49], the IC50 was determined as 0.021 µM.
